Literature values in patent US11472857B2 (Purdue Research Foundation, priority 2015, dated 2022).

Settings: acidic (pH<3) and alkaline (pH>9) conditions; cited from earlier work

In the case of `CSCC[C@H](NC(=O)[C@H](CC(C)C)NC(=O)[C@H](Cc1c[nH]c2ccccc12)NC(=O)[C@H](CCC(N)=O)NC(=O)[C@@H](NC(=O)[C@H](Cc1ccccc1)NC(=O)[C@H](CC(=O)O)NC(=O)[C@H](CCC(N)=O)NC(=O)[C@H](C)NC(=O)[C@H](CCCN=C(N)N)NC(=O)[C@H](CCCN=C(N)N)NC(=O)[C@H](CO)NC(=O)[C@H](CC(=O)O)NC(=O)[C@H](CC(C)C)NC(=O)[C@H](Cc1ccc(O)cc1)NC(=O)[C@H](CCCCN)NC(=O)[C@H](CO)NC(=O)[C@H](Cc1ccc(O)cc1)NC(=O)[C@H](CC(=O)O)NC(=O)[C@H](CO)NC(=O)[C@@H](NC(=O)[C@H](Cc1ccccc1)NC(=O)[C@@H](NC(=O)CNC(=O)[C@H](CCC(N)=O)NC(=O)[C@H](CO)NC(=O)[C@@H](N)Cc1c[nH]cn1)[C@@H](C)O)[C@@H](C)O)C(C)C)C(=O)N[C@@H](CC(N)=O)C(=O)N[C@H](C(=O)O)[C@@H](C)O` [Glucagon, glucagon], the “Chemical degradation of native glucagon in solution” value is listed as “known to undergo chemical degradation”.
